In patent US8338482B2, “Modulating notch1 signaling pathway for treating neuroendocrine tumors” (Wisconsin Alumni Research Foundation, priority 2007, dated 2012):

Tests used:
Hedgehog signaling = conditions: 50 mg/kg/d i.p., 8 weeks
Hedgehog pathway = conditions: murine models; cited from earlier work

SMILES: CC1=C2C[C@H]3[C@@H](CC=C4C[C@@H](O)CC[C@@]43C)[C@@H]2CC[C@]12O[C@@H]1C[C@H](C)CN[C@H]1[C@H]2C [Cyclopamine]
- in vivo NE tumor growth (Hedgehog signaling): growth inhibition and possible regression
- adverse side effects to the mice (Hedgehog pathway): no adverse side effects
